The test has as its target human non-pancreatic sPLA2 (type IIa) (Homo sapiens, UniProt P14555). Briefly: Assay for inhibition of human non-pancreatic sPLA2 (type IIa), mixed micelle colorimetric assay. Type of test: biochemical. Particulars: read-out: IC50, inhibition of human secretary PLA2; recombinant hIIa-PLA2; substrate diheptanoyl thio-phosphatidyl choline, DTNB detection; IC50 from Dixon plot extrapolation.

The chains behind the UniProt entries cited, without tags or fusion partners. Residues count along the entry.
UniProt P14555, 21-144 limits assumed: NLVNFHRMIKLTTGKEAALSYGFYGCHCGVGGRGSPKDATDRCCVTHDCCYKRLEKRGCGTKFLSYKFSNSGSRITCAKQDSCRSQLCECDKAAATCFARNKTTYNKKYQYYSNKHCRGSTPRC

The term IC50 denotes the concentration that gives 50% inhibition.

Molecules are shown by their SMILES.

On to `O=C(O)CC[C@@H](Cc1ccc(OCc2cccnc2)cc1)NC(=O)CCCCCCc1ccccc1`, for which the IC50 is 247 nM.

The values are drawn from patent publication US7253194B2, “Compounds and inhibitors of phospholipases” (The University of Queensland, priority 2000, dated 2007).
